According to ChEMBL document CHEMBL4184094, “Spiro-1-benzofuranpiperidinylalkanoic acids as a novel and selective sphingosine S1P5 receptor agonist chemotype” (Bioorg Med Chem Lett, 2018):

Key:
Homo sapiens [1] = organism: Homo sapiens; assay: Selectivity ratio of EC50 for human S1P5 receptor expressed in CHO cells to EC50 for human S1P3 receptor expressed in CHO cells; assay type: cell-based
Homo sapiens [2] = organism: Homo sapiens; assay: Selectivity ratio of EC50 for human S1P5 receptor expressed in CHO cells to EC50 for human S1P1 receptor expressed in CHO cells; assay type: cell-based

| Compound | Ratio EC50 (Homo sapiens [1]) | Ratio EC50 (Homo sapiens [2]) |
| --- | --- | --- |
| Cl.O=C(O)CCN1CCC2(CC1)COc1cc(C#Cc3ccccc3)ccc12 | 100 | 1000 |
| CC(CN1CCC2(CC1)COc1cc(OCc3c(Cl)cccc3Cl)ccc12)C(=O)O (configuration not stated) | 100 | – |
| O=C(O)CCN1CCC2(CC1)COc1cc(OCc3c(Cl)cccc3OC(F)(F)F)ccc12 | 100 | – |
| Cc1cc(Cl)c(COc2ccc3c(c2)OCC32CCN(CCC(=O)O)CC2)c(Cl)c1 | 1000 | – |
| Cl.O=C(O)CCN1CCC2(CC1)COc1cc(/C=C/c3c(Cl)cccc3Cl)ccc12 | 100 | 1000 |
